In ChEMBL document CHEMBL1156789, “Design and synthesis of 5,5'-disubstituted aminohydantoins as potent and selective human beta-secretase (BACE1) inhibitors” (J Med Chem, 2010):

Target: T1, Beta-secretase 2 (Homo sapiens, UniProt Q9Y5Z0)
T1 sequence (Q9Y5Z0 whole entry): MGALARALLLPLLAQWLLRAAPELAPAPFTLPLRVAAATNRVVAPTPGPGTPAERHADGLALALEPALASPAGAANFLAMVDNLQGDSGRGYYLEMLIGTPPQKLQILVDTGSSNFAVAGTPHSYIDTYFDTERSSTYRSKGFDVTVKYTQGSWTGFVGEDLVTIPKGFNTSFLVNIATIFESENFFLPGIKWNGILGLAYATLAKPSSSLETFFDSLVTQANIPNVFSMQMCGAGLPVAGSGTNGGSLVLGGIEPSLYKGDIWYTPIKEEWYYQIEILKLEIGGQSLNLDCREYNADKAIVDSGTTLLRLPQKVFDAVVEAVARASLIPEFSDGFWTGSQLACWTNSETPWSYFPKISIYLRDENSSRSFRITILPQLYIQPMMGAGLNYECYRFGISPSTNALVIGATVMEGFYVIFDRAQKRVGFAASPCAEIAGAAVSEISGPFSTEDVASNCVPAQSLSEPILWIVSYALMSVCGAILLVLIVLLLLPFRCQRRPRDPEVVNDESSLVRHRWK
Assay: Inhibition of human BACE2 by FRET based peptide cleavage assay

SMILES: COc1ccc(C2(c3cccc(-c4cccnc4)c3)N=C(N)N(C)C2=O)cc1C (configuration not stated)
- IC50: 780 nM

SMILES: COc1ccc(C2(c3cccc(-c4cccnc4)c3)N=C(N)N(C)C2=O)cc1OC (configuration not stated)
- IC50: 4170 nM
